From US6972282B1, “Process for producing a product containing antihypertensive tripeptides” (Valio Ltd., priority 1999, dated 2005)

Sequences of proteins named here, by UniProt entry; tags and fusion partners are left off. Residues count along the entry.
UniProt P12821, 30-1306, species assumed: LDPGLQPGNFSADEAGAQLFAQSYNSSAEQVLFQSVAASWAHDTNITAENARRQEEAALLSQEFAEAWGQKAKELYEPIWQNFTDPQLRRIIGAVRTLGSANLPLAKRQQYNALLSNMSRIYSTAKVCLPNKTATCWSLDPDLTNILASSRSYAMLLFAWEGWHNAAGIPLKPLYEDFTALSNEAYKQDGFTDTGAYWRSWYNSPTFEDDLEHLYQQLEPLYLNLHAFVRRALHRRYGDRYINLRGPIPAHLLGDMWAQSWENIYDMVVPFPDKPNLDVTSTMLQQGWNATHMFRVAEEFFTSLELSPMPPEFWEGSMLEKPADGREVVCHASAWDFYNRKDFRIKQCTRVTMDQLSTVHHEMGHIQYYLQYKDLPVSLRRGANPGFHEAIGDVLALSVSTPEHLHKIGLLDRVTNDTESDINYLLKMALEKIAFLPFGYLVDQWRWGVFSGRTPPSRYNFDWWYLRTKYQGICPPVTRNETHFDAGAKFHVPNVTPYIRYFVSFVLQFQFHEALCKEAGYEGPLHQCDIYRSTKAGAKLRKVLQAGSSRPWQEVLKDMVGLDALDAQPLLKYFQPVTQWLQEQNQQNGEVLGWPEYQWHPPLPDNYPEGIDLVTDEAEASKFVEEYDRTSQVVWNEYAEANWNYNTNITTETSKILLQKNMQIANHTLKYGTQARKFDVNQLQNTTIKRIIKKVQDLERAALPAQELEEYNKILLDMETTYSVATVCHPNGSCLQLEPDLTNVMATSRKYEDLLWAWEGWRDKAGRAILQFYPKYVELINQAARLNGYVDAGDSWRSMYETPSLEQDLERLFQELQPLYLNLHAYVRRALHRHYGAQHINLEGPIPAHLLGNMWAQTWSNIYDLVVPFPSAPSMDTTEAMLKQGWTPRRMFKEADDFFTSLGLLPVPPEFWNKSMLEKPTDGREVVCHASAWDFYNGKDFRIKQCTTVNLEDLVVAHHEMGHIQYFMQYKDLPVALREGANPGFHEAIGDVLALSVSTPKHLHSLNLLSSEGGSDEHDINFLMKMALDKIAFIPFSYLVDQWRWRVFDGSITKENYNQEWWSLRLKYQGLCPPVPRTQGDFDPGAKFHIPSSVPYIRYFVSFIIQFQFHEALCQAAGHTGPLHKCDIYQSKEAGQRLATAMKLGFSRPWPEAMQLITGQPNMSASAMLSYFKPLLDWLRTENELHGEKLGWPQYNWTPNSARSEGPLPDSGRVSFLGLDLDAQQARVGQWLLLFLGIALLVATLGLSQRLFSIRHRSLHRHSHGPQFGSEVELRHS

Biological target: angiotensin converting enzyme (ACE) (Homo sapiens, UniProt P12821)
Test: ACE inhibitory activity, inhibitor constant (continuous spectrophotometric assay, Holmquist et al.)
Assay type: biochemical
Details: the smaller the number, the more effective the ACE inhibitor

Row | Ki | SMILES
1 | 4.4 µM | CC[C@H](C)[C@H](N)C(=O)N1CCC[C@H]1C(=O)N1CCC[C@H]1C(=O)O [IPP, IIe-Pro-Pro]
2 | 18 µM | CC(C)[C@H](N)C(=O)N1CCC[C@H]1C(=O)N1CCC[C@H]1C(=O)O [VPP, Val-Pro-Pro]
